Data published in paper PMC2691528 (European Journal of Nuclear Medicine and Molecular Imaging, 2009).
Entries after “also recorded” stand apart in the source; their conditions may differ.

By UniProt entry, the sequences of proteins in these tests, tags left out.
UniProt Q9R0C9, whole entry: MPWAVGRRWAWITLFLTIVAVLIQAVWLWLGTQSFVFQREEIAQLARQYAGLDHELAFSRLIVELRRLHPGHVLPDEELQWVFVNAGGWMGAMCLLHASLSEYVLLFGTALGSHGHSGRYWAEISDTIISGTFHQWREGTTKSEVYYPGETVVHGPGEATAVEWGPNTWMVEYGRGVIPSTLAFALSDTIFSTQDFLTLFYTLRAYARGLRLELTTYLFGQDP

Target: cellular sigma receptors (C6 rat glioma cells) (Rattus norvegicus, UniProt Q9R0C9)
Assay: Competition with 11C-SA4503 binding to intact C6 glioma cell monolayers

CC(=O)[C@H]1CC[C@H]2[C@@H]3CCC4=CC(=O)CC[C@]4(C)[C@H]3CC[C@]12C [progesterone]
competition with 11C-SA4503 for binding to cellular sigma receptors (50 µM competitor added to normal growth medium (DMEM with 7.5% FCS)): measurable competition
reduction of 11C-SA4503 radioligand binding to C6 cells (50 µM competitor, steroid-free medium): 60%
rank order of potency as competitor of 11C-SA4503 binding (C6 cells, both normal and steroid-depleted medium, 50 µM): progesterone > androstanolone = testosterone = allopregnanolone > DHEA-S; also recorded: most potent steroid inhibitor
